# Values of other authors in US20130218474A1, “Benchmarks for Normal Cell Identification” (priority 2012, published 2013).
# pIC50: −log10 of the molar value. Read-outs that look alike come from different tables or passages of the source.
# Tested on: U87MG
# Settings: cited from earlier work
smiles,measurement,setting,value
CS(=O)(=O)N1CCN(Cc2cc3nc(-c4cccc5[nH]ncc45)nc(N4CCOCC4)c3s2)CC1 [GDC-0941],pIC50,read-out: IC50 U87MG,6.02
same,pIC50,read-out: inhibition of U87MG cancer cell proliferation (IC50),6.02
